Values of other authors, collected in patent US20120130144A1, “TREATMENT OF LUNG CANCER WITH A NITROBENZAMIDE COMPOUND IN COMBINATION WITH A GROWTH FACTOR INHIBITOR” (BiPar Sciences, Inc., priority 2009, published 2012).

Tested on: NSCLC cells with mutant EGFR
Settings: NSCLC cells with mutant but not wild-type EGFR; cited from earlier work

For `COc1cc2ncnc(Nc3ccc(F)c(Cl)c3)c2cc1OCCCN1CCOCC1` [GFT, gefitinib], the “apoptosis following gefitinib treatment” value is given as “undergo apoptosis”.
